Reference: PubChem BioAssay (NCI)
Some tests of the compounds listed are not included; inactive here does not mean inactive elsewhere.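 Compound exposure: 48 hours, 5 concentrations, 96-well plates. GI50: concentration for 50% inhibition of growth. TGI marks complete inhibition of growth.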

Experiments:
Assay in all cases: NCI tumour cell line growth inhibition, 48 h
HOP-92 NSCLC = test system: HOP-92 NSCLC
SK-MEL-2 melanoma = test system: SK-MEL-2 melanoma
RPMI-8226 leukemia = test system: RPMI-8226 leukemia
HOP-62 NSCLC = test system: HOP-62 NSCLC
TK-10 renal = test system: TK-10 renal
OVCAR-3 ovarian = test system: OVCAR-3 ovarian
K-562 leukemia = test system: K-562 leukemia
DU-145 prostate = test system: DU-145 prostate
CAKI-1 renal = test system: CAKI-1 renal
SK-MEL-5 melanoma = test system: SK-MEL-5 melanoma
MDA-MB-435 = test system: MDA-MB-435
MCF7 breast = test system: MCF7 breast
NCI-H322M lung = test system: NCI-H322M lung
HT29 colon = test system: HT29 colon
SK-OV-3 ovarian = test system: SK-OV-3 ovarian
IGROV1 ovarian = test system: IGROV1 ovarian
KM12 colon = test system: KM12 colon
LOX IMVI melanoma = test system: LOX IMVI melanoma
MDA-N = test system: MDA-N
HL-60(TB) leukemia = test system: HL-60(TB) leukemia
SK-MEL-28 melanoma = test system: SK-MEL-28 melanoma
NCI-H23 lung = test system: NCI-H23 lung
NCI/ADR-RES ovarian = test system: NCI/ADR-RES ovarian
NCI-H522 lung = test system: NCI-H522 lung
SR leukemia = test system: SR leukemia
SF-539 CNS = test system: SF-539 CNS
786-0 renal = test system: 786-0 renal
PC-3 prostate = test system: PC-3 prostate
UACC-257 melanoma = test system: UACC-257 melanoma
HS 578T breast = test system: HS 578T breast
T-47D breast = test system: T-47D breast
UO-31 renal = test system: UO-31 renal
SW-620 colon = test system: SW-620 colon
BT-549 breast = test system: BT-549 breast
U251 CNS = test system: U251 CNS
ACHN renal = test system: ACHN renal
M14 melanoma = test system: M14 melanoma
RXF 393 renal = test system: RXF 393 renal
SNB-75 CNS = test system: SNB-75 CNS
EKVX NSCLC = test system: EKVX NSCLC
HCT-116 colon = test system: HCT-116 colon
UACC-62 melanoma = test system: UACC-62 melanoma
A498 renal = test system: A498 renal
HCT-15 colon = test system: HCT-15 colon
NCI-H460 lung = test system: NCI-H460 lung
OVCAR-8 ovarian = test system: OVCAR-8 ovarian
SF-295 CNS = test system: SF-295 CNS
SNB-19 CNS = test system: SNB-19 CNS
CCRF-CEM leukemia = test system: CCRF-CEM leukemia
MDA-MB-231 breast = test system: MDA-MB-231 breast
MOLT-4 leukemia = test system: MOLT-4 leukemia
SF-268 CNS = test system: SF-268 CNS
MALME-3M melanoma = test system: MALME-3M melanoma
SN12C renal = test system: SN12C renal
NCI-H226 lung = test system: NCI-H226 lung
COLO 205 colon = test system: COLO 205 colon
HCC-2998 colon = test system: HCC-2998 colon
A549 NSCLC = test system: A549 NSCLC
OVCAR-4 ovarian = test system: OVCAR-4 ovarian
OVCAR-5 ovarian = test system: OVCAR-5 ovarian

`CC#CC(O)(C(=O)OC1C2CCN(CC2)C1C)C1=CCCC1` (stereo not given) showed a GI50 (HOP-92 NSCLC) of over 100 µM, a TGI (HOP-92 NSCLC) of over 100 µM and a GI50 (SK-MEL-2 melanoma) of over 100 µM. It also gave a TGI (SK-MEL-2 melanoma) of over 100 µM, a GI50 (RPMI-8226 leukemia) of over 100 µM and a TGI (RPMI-8226 leukemia) of over 100 µM. For the same molecule, the GI50 (HOP-62 NSCLC) was over 100 µM, the TGI (HOP-62 NSCLC) was over 100 µM and the GI50 (TK-10 renal) was over 100 µM. The TGI (TK-10 renal) was over 100 µM, the GI50 (OVCAR-3 ovarian) was over 100 µM and the TGI (OVCAR-3 ovarian) was over 100 µM. For the same molecule, the GI50 (K-562 leukemia) was 40.4 µM, the TGI (K-562 leukemia) was over 100 µM and the GI50 (DU-145 prostate) was over 100 µM. It also gave a TGI (DU-145 prostate) of over 100 µM, a GI50 (CAKI-1 renal) of over 100 µM and a TGI (CAKI-1 renal) of over 100 µM. For the same molecule, the GI50 (SK-MEL-5 melanoma) was over 100 µM, the TGI (SK-MEL-5 melanoma) was over 100 µM and the GI50 (MDA-MB-435) was over 100 µM. For the same molecule, the TGI (MDA-MB-435) was over 100 µM, the GI50 (MCF7 breast) was over 100 µM and the TGI (MCF7 breast) was over 100 µM. The GI50 (NCI-H322M lung) was over 100 µM, the TGI (NCI-H322M lung) was over 100 µM and the GI50 (HT29 colon) was over 100 µM. For the same molecule, the TGI (HT29 colon) was over 100 µM, the GI50 (SK-OV-3 ovarian) was over 100 µM and the TGI (SK-OV-3 ovarian) was over 100 µM. For the same molecule, the GI50 (IGROV1 ovarian) was over 100 µM, the TGI (IGROV1 ovarian) was over 100 µM and the GI50 (KM12 colon) was over 100 µM. The TGI (KM12 colon) was over 100 µM, the GI50 (LOX IMVI melanoma) was over 100 µM and the TGI (LOX IMVI melanoma) was over 100 µM. For the same molecule, the GI50 (MDA-N) was over 100 µM, the TGI (MDA-N) was over 100 µM and the GI50 (HL-60(TB) leukemia) was over 100 µM. For the same molecule, the TGI (HL-60(TB) leukemia) was over 100 µM, the GI50 (SK-MEL-28 melanoma) was over 100 µM and the TGI (SK-MEL-28 melanoma) was over 100 µM. For the same molecule, the GI50 (NCI-H23 lung) was over 100 µM, the TGI (NCI-H23 lung) was over 100 µM and the GI50 (NCI/ADR-RES ovarian) was over 100 µM. For the same molecule, the TGI (NCI/ADR-RES ovarian) was over 100 µM, the GI50 (NCI-H522 lung) was over 100 µM and the TGI (NCI-H522 lung) was over 100 µM. For the same molecule, the GI50 (SR leukemia) was over 100 µM, the TGI (SR leukemia) was over 100 µM and the GI50 (SF-539 CNS) was over 100 µM. For the same molecule, the TGI (SF-539 CNS) was over 100 µM, the GI50 (786-0 renal) was over 100 µM and the TGI (786-0 renal) was over 100 µM. It also gave a GI50 (PC-3 prostate) of over 100 µM, a TGI (PC-3 prostate) of over 100 µM and a GI50 (UACC-257 melanoma) of over 100 µM. It also gave a TGI (UACC-257 melanoma) of over 100 µM, a GI50 (HS 578T breast) of over 100 µM and a TGI (HS 578T breast) of over 100 µM. For the same molecule, the GI50 (T-47D breast) was over 100 µM, the TGI (T-47D breast) was over 100 µM and the GI50 (UO-31 renal) was over 100 µM. For the same molecule, the TGI (UO-31 renal) was over 100 µM, the GI50 (SW-620 colon) was over 100 µM and the TGI (SW-620 colon) was over 100 µM. It also gave a GI50 (BT-549 breast) of over 100 µM, a TGI (BT-549 breast) of over 100 µM and a GI50 (U251 CNS) of over 100 µM. The TGI (U251 CNS) was over 100 µM, the GI50 (ACHN renal) was over 100 µM and the TGI (ACHN renal) was over 100 µM. The GI50 (M14 melanoma) was over 100 µM, the TGI (M14 melanoma) was over 100 µM and the GI50 (RXF 393 renal) was over 100 µM. For the same molecule, the TGI (RXF 393 renal) was over 100 µM, the GI50 (SNB-75 CNS) was 42.2 µM and the TGI (SNB-75 CNS) was 81.6 µM. For the same molecule, the GI50 (EKVX NSCLC) was over 100 µM, the TGI (EKVX NSCLC) was over 100 µM and the GI50 (HCT-116 colon) was over 100 µM. It also gave a TGI (HCT-116 colon) of over 100 µM, a GI50 (UACC-62 melanoma) of over 100 µM and a TGI (UACC-62 melanoma) of over 100 µM. It also gave a GI50 (A498 renal) of over 100 µM, a TGI (A498 renal) of over 100 µM and a GI50 (HCT-15 colon) of over 100 µM. It also gave a TGI (HCT-15 colon) of over 100 µM, a GI50 (NCI-H460 lung) of over 100 µM and a TGI (NCI-H460 lung) of over 100 µM. It also gave a GI50 (OVCAR-8 ovarian) of over 100 µM, a TGI (OVCAR-8 ovarian) of over 100 µM and a GI50 (SF-295 CNS) of over 100 µM. For the same molecule, the TGI (SF-295 CNS) was over 100 µM, the GI50 (SNB-19 CNS) was over 100 µM and the TGI (SNB-19 CNS) was over 100 µM. The GI50 (CCRF-CEM leukemia) was 35.6 µM, the TGI (CCRF-CEM leukemia) was 72 µM and the GI50 (MDA-MB-231 breast) was over 100 µM. The TGI (MDA-MB-231 breast) was over 100 µM, the GI50 (MOLT-4 leukemia) was 32.4 µM and the TGI (MOLT-4 leukemia) was 91.6 µM. It also gave a GI50 (SF-268 CNS) of 26.7 µM, a TGI (SF-268 CNS) of over 100 µM and a GI50 (MALME-3M melanoma) of over 100 µM. The TGI (MALME-3M melanoma) was over 100 µM, the GI50 (SN12C renal) was over 100 µM and the TGI (SN12C renal) was over 100 µM. It also gave a GI50 (NCI-H226 lung) of over 100 µM, a TGI (NCI-H226 lung) of over 100 µM and a GI50 (COLO 205 colon) of over 100 µM. For the same molecule, the TGI (COLO 205 colon) was over 100 µM, the GI50 (HCC-2998 colon) was over 100 µM and the TGI (HCC-2998 colon) was over 100 µM. The GI50 (A549 NSCLC) was over 100 µM, the TGI (A549 NSCLC) was over 100 µM and the GI50 (OVCAR-4 ovarian) was over 100 µM. The TGI (OVCAR-4 ovarian) was over 100 µM, the GI50 (OVCAR-5 ovarian) was over 100 µM and the TGI (OVCAR-5 ovarian) was over 100 µM.
